Experimental findings from patent publication US20230118024A1 (Chugai, published 2023) are described below.

The target of experiment [1] is T1, HLA-DQ2.5/Hepatitis B virus peptide complex on Ba/F3 cells (human; Hepatitis B virus, UniProt P01909 24-254). Briefly: FACS, FIG. 28. (In general: A flow cytometer gives signals particle by particle.)
For experiment [2], the target named is T2, HLA-DQ2.5/Mycobacterium bovis peptide complex on Ba/F3 cells (human; Mycobacterium bovis, UniProt P01909 24-254). In words: FACS.
The target in experiment [3] is T3, HLA-DQ2.5/salmonella peptide complex on Ba/F3 cells (human; salmonella, UniProt P01909 24-254). In words: FACS.
Experiment [4] deals with T1, HLA-DQ2.5/Hepatitis B virus peptide …. Briefly: FACS.
Experiment [5] deals with T2, HLA-DQ2.5/Mycobacterium bovis peptide …. In words: FACS, FIG. 27.
Experiment [6] has as its target T3, HLA-DQ2.5/salmonella peptide complex on …. Briefly: FACS, FIG. 26.
In experiment [7] the target is T4, HLA-DQ2.5/alpha 1b gliadin peptide complex on Ba/F3 cells (human; wheat).
T4 construct: also called Ba/F3-HLA-DQ2.5/alpha 1b gliadin peptide
In words: FACS.

A further experiment deals with T5, HLA-DQ7.5 on Ba/F3 cells (human, UniProt P01909 24-254; P01920 33-261).
T5 construct: also called Ba/F3-HLA-DQ7.5
In words: FACS, FIG. 32.

Experiment [8] addresses T6, HLA-DQ2.5 on Ba/F3 cells (not in the form of a complex with a linked peptide) (human, UniProt P01909 24-254; P01920 33-261).
T6 construct: also called Ba/F3-HLA-DQ2.5; No peptide
T6 MHC II alpha: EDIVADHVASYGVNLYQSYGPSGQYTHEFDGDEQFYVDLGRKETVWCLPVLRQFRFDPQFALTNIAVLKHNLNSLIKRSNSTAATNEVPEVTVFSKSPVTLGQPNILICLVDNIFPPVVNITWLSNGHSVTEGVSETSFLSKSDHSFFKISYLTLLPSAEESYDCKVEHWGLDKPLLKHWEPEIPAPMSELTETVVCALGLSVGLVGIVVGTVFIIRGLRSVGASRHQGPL
T6 MHC II beta: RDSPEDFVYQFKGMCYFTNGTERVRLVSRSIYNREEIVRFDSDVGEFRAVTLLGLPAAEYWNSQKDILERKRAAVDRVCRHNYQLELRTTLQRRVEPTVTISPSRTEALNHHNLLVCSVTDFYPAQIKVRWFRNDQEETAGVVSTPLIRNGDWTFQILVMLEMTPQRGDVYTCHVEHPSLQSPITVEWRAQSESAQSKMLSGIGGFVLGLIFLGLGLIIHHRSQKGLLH
In words: FACS.

The target of experiment [9] is T7, HLA-DQ2.5 on HLA-DQ2.5 positive PBMC-B cells (human, UniProt P01909 24-254; P01920 33-261).
T7 construct: also called DQ2.5 + PBMC; HLA-DQ2.5+PBMC B cell
T7 MHC II alpha: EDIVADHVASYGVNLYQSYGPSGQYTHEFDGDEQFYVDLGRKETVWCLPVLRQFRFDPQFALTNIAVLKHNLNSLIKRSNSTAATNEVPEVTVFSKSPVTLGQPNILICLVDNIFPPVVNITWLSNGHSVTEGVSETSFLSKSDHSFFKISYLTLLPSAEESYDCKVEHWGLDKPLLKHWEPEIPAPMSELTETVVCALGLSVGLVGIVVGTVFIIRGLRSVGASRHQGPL
T7 MHC II beta: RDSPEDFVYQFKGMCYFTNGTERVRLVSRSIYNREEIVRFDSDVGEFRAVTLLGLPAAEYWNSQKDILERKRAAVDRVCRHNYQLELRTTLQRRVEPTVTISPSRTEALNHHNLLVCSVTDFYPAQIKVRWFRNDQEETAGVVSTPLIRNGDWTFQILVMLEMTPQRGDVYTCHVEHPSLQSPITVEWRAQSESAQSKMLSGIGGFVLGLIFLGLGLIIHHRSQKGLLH
In words: FACS.

B1: DQN0271hh (antibody, human IgG1, kappa, V domains shown)
VH: QSLEESGGGLVKPGASLTLTCKASGFSFSSGYYMCWVRQAPGKGLEWIACIYAGSPDLTYYATWAKGRLTISTTSSTTVTLQLTSLTAADTATYFCARDPGNWGGYDDVRLWGPGTLVTVSS
VL: AQVLTQTPSPVSAAVGGTVTISCQSSQSIYSNYLSWFQQKTGQPPKLLIYRASTLASGVPSRFKGSGSGTEFTLTISGVECDDAATYYCQGYYSGAIWTFGGGTKVEIKR
notes: also called DQN0271Lh
B1: the binding result in experiment [1], in experiment [5] and in [6] was “no binding (tested: 10 microgram/mL)” throughout. The “FIG. 30 FACS value (IC17=0, DQN0139bb=100)” value (“FIG. 30 FACS value” below) in experiment [2] was 0.1; in experiment [3], -0.1; in [4], -0.1.

B2: DQN0334bb (antibody, human IgG1, kappa, V domains shown)
VH: QQQLEESGGDLVQPEGSLTLTCKASGFDFSFNAMCWVRQAPGRGPEWIACIYNGNGSTYYASWAKGRFTISKTSSTSVTLQMTSLTAADTATYFCARGGYGLGYAGYGDVNYFNLWGPGTLVTVSS
VL: AVVLTQTASPVSAPVGGTVTIKCQASEDIYFLLAWYRQKPGQPPKLLIYGASTLASGVPSRFKGSGSGTEYTLTISDLECADAATYYCQSYWYGDSGPNTFGGGTKVEIKR
notes: also called DQN0334Hb; DQN0334Lb
In the case of B2, the binding result in experiment [1], in experiment [5] and in experiment [6] was “no binding (tested: 10 microgram/mL)” in each case. The entries for the “FIG. 30 FACS value” value in experiment [2], in [3] and in experiment [4] were 0.3, 0 and 0.1, respectively.

B3: DQN0324hh (antibody, human IgG1, kappa, V domains shown)
VH: QSLEESGGDLVKPGASLALTCTASGFSLINNYYMCWVRQAPGKGLEWIACIYAGLGGWTYYASWAKGRFTISKTSSTTVTLQMSSLTVADAATYFCARAATTYYHFNLWGPGTLVTVSS
VL: AVVLTQTESPVSAAVGDTVTIKCQASQSIGNALAWYQQKPGQPPKLLIYDASTLASGVPSRFKGSGSGTQFTLTISDLECADAATYYCQSYDYGSSADTYTFGGGTKVEIKR
notes: also called DQN0324Lh
For the molecule B3, the binding result in experiment [1], in experiment [5] and in [6] was “no binding (tested: 10 microgram/mL)” in each case. Moreover, the “FIG. 30 FACS value” value in experiment [2], in experiment [3] and in experiment [4] was -0.1 each time.

B4: DQN0282ff (antibody, human IgG1, kappa, V domains shown)
VH: QSVEESGGRLVTPGTPLTLSCKASGFDFSIYYMSWVRQAPGKGLEWIGVINSGGGVTWYASWVKGRFTISKTSTTVDLKITSPTTEDTATYFCARLGDSNHYDLWGPGTLVTVSS
VL: AYDMTQTPSSVSAAVGGTVTIKCQASETISSYLAWYQQKPGQRPQLLIYDASNLASGVPSRFKGSGSGTEFTLTISDLECADAATYYCQTHYYITSTTFGGGTKVEIKR
notes: also called DQN0282Hf; DQN0282Lf
Regarding B4, the binding result in experiment [1], in [5] and in experiment [6] was “no binding (tested: 10 microgram/mL)” in each case. The “FIG. 30 FACS value” value turned out to be 2.4 in experiment [2], 2 in experiment [3] and 1.9 in experiment [4].

B5: DQN0235ee (antibody, human IgG1, kappa, V domains shown)
VH: QQQLEESGGGLVKPGGTLTLTCKAGIDFSTYYYMCWVRQAPGKRPEWIACIFDGDGSTYYASWVNGRFTISKASSTTVTLRMTSLTAADTATYFCARSAGGSSSFGYFNLWGPGTLVTVSS
VL: AYDMTQTPSSVSAAVGGTVTIKCQASQSISSSYLAWYHQKPGQSPKLLIYSASTLASGVPSRFKGSGSGTEFTLTISDLACADAATYYCQSYYYFSSNAWHTFGGGTKVEIKR
notes: also called DQN0235He; DQN0235Le
Turning to B5, the “FIG. 30 FACS value” value in experiment [7] turned out to be 66.9.

B6: DQN0089ff (antibody, V domains shown)
VH: QEQVVEYGGDLVQPEGSLTLTCKASGLDFSSTYYMCWVRQAPGKGLEWIGCIYGGSSDSTYYASWAKGRFTISKTSPTTVTLQMTSLTAADTATHFCATYDYGAVGYDLWGPGTLVTVSS
VL: EVVVTQTPASVEVAVGGTVTIKCQASQNISPYLSWYQQKPGQPPKLLIYKASTLASGVSSRFKGSGSGTQFTLTISDLECADAATYYCQNNYGVSINYGHTFGGGTKVEIK
notes: also called DQN0089Hf; DQN0089Lf
Consider B6, for which the binding result with HLA-DQ7.5 on Ba/F3 cells was “no binding (tested: 10 microgram/mL)”. Further, the “FIG. 30 FACS value” value in experiment [8] is 118.

B7: DQN0225dd (antibody, human IgG1, kappa, V domains shown)
VH: QSLEESGGGLVKPGGTLTLTCTASGFSFSSAYYMCWVRQAPGKGLEWIACIYVGSGSTYYASWAQGRCTISKASSTTVTLQMTSLTAADTATYFCARDPLIYYYYGELNLWGPGTLVTVSS
VL: AVVLTQTASPVSAPVGGTVTIKCQASEDISSNLAWYQQKPGQRPKVLIYSASTLASGVSSQFKGSGSGTQFTLTISDLECADAATYYCQSYYDISSVTFGGGTKVEIKR
notes: also called DQN0225Hd; DQN0225Ld
Turning to B7, the binding result in [1], in experiment [5] and in [6] was “no binding (tested: 10 microgram/mL)” each time. Also, the “FIG. 30 FACS value” value was 0 in [2], -0.2 in experiment [3] and 1 in experiment [4].

B8: DQN0370hh (antibody, human IgG1, kappa, V domains shown)
VH: QSLEESGGGLVKPGGPLTLTCTASGFSFSSAYYMCWVRQAPGKGLEWIACIYVGSGSTYYTSWAKGRFTISKVSSTTMTLQMTSLTAADTATYFCARDPLIYYYYGELNLWGPGTLVTVSS
VL: AVVLTQTASPVSAPVGGTVTIKCQASEDIYSNLAWYQQKPGQRPKVLIYSASTLASGVSSRFKGSRSGTEYTLSITDLGCADAATYYCQAYYDIGGVTFGGGTKVEIKR
notes: also called DQN0370Lh
Turning to B8, the binding result in experiment [1], in [5] and in experiment [6] was “no binding (tested: 10 microgram/mL)” throughout. The “FIG. 30 FACS value” value in experiment [9] is -0.1; in [8] it was 0; in [2] it was 0; in [3], -0.1; in [4] it was 0.

B9: DQN0344xx (antibody, human IgG1, kappa, V domains shown)
VH: QSLEESGGGLVKPGGTLTLTCTASGFSFSSSYWMCWVRQAPGKGLEWVACVYGGSDTTYYASWTKGRFTISKGSSTTVALQVTSLTAADTATYFCARDPLNYYYYGELNLWGPGTLVTVSS
VL: AVVLTQTASPVSAAVGGTVTIRCQATENIYSGLAWYQQKPGQPPKVLIYYVSTLASGVPSRFKGSGSGTEYTLTISGVQCDDAATYYCQTYHDISNVTFGGGTKVEIKR
notes: also called DQN0344Hx; DQN0344Lx
As for B9, the binding result in [1], in [5] and in [6] was “no binding (tested: 10 microgram/mL)” throughout. The “FIG. 30 FACS value” value in experiment [9], in experiment [3] and in [4] was -0.1 each time.
